Among the data in ChEMBL document CHEMBL1125181, “Naphthosultam derivatives: a new class of potent and selective 5-HT2 antagonists” (J Med Chem, 1991) are IC50 and Ki values, retold here.

Chains of the proteins cited; added tags and fusions are not shown. Lines headed by an entry give the natural chain unless they say otherwise; changes in a name come on top.
UniProt P30994: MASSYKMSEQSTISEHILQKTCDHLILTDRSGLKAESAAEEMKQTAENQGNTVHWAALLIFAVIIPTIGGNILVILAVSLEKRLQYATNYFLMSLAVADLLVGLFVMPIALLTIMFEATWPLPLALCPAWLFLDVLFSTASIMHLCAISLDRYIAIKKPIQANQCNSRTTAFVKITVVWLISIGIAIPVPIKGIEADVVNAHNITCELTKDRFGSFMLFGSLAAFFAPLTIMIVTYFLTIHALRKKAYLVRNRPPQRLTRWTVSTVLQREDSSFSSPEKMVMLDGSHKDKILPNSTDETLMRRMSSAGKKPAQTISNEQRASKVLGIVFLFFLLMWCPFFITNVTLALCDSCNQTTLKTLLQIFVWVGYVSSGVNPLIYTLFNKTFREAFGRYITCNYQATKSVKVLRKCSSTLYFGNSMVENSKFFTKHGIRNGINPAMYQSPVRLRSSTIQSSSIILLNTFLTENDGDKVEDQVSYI
UniProt P08909: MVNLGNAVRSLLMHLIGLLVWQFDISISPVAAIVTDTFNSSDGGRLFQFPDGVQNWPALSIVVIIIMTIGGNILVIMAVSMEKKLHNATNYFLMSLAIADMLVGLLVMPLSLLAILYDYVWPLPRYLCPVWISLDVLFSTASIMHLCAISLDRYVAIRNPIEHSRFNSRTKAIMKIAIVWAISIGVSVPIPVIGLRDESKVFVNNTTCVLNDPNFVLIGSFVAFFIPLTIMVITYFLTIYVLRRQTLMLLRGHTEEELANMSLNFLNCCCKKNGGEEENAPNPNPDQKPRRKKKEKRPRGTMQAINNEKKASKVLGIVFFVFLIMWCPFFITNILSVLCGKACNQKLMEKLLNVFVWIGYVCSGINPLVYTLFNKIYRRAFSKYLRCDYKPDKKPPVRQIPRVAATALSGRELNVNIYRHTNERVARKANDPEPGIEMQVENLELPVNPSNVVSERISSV
UniProt P14842: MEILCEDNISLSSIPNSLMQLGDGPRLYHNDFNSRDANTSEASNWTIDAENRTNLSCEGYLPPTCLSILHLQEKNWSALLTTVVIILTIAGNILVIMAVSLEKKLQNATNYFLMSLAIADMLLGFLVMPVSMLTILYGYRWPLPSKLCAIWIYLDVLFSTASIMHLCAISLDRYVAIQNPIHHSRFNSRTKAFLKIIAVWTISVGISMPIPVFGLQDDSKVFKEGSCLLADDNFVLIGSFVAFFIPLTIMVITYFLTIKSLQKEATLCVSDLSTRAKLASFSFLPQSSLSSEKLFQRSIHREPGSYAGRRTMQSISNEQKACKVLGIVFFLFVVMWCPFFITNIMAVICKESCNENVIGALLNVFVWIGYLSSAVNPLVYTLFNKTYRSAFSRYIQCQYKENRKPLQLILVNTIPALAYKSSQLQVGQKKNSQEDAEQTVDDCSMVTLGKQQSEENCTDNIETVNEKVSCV

In assay [1] the target is T1, Serotonin 2 (5-HT2) receptor (Rattus norvegicus, UniProt P30994+P08909+P14842). Put plainly: The concentration required to inhibit [3H]ketanserin binding to 5-hydroxytryptamine 2 receptor in rat brain membranes (in vitro). Format: cell membranes. The procedure, abridged: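 Male Sprague-Dawley rat cortical membranes (0.15 mg/mL protein) in Tris-HCl pH 7.6 with BSA 2 mg/mL. Incubated 15 min at 37 °C with compound and [3H]ketanserin (final 0.4 nM). Nonspecific binding from 10⁻⁶ M methysergide. Filtration and scintillation counting. IC50 by nonlinear regression; mean of at least 2 runs, 6 concentrations in triplicate.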

Assay [2] has as its target T1, Serotonin 2 (5-HT2) receptor. The assay is described as follows: Binding constant against 5-hydroxytryptamine 2 receptor (in vitro). Format: protein assay.

Molecules are shown by their SMILES.

As usually defined, the IC50 is the point on the concentration scale where inhibition reaches its midpoint. By Ki is commonly meant the dissociation constant of the complex between target and ligand, obtained from inhibition or displacement. A low value points to tighter binding. In assay [1], `Cc1nc2sccn2c(=O)c1CCN1CCC(=C(c2ccc(F)cc2)c2ccc(F)cc2)CC1` [RITANSERIN] yielded an IC50 of 1.7 nM. The compound further came in with a Ki in assay [2] of 0.69 nM.
